Six compounds from patent publication US7192924B2, “Corticotropin releasing factor 2 receptor agonists” (priority 2002, dated 2007) can be followed below.

Like-named read-outs stand apart in the source and are kept apart here. Bounds are passed on as bounds.

One experiment deals with T1, CRF2R (Homo sapiens, UniProt Q13324).
T1 sequence (Q13324 1-411): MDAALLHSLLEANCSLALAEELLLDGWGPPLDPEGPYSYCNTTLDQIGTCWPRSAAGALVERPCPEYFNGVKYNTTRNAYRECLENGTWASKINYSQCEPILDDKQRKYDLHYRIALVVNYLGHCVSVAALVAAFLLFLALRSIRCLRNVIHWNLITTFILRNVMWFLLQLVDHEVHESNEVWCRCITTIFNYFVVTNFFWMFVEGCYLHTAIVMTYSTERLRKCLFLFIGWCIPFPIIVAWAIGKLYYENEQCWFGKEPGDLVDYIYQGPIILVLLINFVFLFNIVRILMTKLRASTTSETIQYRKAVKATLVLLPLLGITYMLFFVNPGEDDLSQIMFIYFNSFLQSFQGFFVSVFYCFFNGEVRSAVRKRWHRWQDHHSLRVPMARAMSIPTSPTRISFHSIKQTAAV
The experiment is described as follows: CRF2R agonist activity (EC50, Emax), called comparative CRF binding. The format is cell-based. The method in brief: (§1)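 Cells expressing only CRF1R or only CRF2R (or recombinant receptor) are contacted with peptide or vehicle control. Receptor activation is read as cAMP induction, measured in cell lysates or via a cAMP-responsive-element reporter gene such as luciferase.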

In the next experiment the target is T2, CRF1R (Homo sapiens, UniProt P34998).
T2 sequence (P34998 24-415): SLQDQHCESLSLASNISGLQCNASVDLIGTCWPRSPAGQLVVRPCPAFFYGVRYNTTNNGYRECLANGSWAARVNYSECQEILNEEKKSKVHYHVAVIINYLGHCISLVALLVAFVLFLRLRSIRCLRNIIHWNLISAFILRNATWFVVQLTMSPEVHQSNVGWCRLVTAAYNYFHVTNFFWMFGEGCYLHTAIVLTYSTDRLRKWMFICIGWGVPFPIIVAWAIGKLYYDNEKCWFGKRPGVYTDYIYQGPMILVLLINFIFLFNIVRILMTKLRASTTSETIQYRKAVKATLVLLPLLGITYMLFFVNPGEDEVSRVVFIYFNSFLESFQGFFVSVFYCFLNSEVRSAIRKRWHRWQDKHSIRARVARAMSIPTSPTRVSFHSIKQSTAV
The experiment is described as follows: CRF1R agonist activity (EC50, Emax), called comparative CRF binding. The format is cell-based. In a few lines: as §1

On to `CC[C@H](C)[C@H](NC(=O)[C@H](CCCNC(=N)N)NC(=O)[C@H](C)NC(=O)[C@H](CC(N)=O)NC(=O)[C@@H](NC(=O)[C@@H](NC(=O)[C@H](C)NC(=O)[C@H](CCC(N)=O)NC(=O)[C@H](CCC(N)=O)NC(=O)[C@H](CCCCN)NC(=O)[C@H](CCC(=O)O)NC(=O)[C@H](CCCCN)NC(=O)[C@H](CCC(=O)O)NC(=O)[C@H](CCC(N)=O)NC(=O)[C@H](CCCCN)NC(=O)[C@H](CCC(=O)O)NC(=O)[C@@H](NC(=O)[C@H](CCC(=O)O)NC(=O)[C@@H](NC(=O)[C@H](CCSC)NC(=O)[C@H](CCCCN)NC(=O)[C@H](CCCNC(=N)N)NC(=O)[C@H](CC(C)C)NC(=O)[C@H](CC(C)C)NC(=O)[C@H](Cc1ccc(O)cc1)NC(=O)[C@H](CC(C)C)NC(=O)[C@@H]1CCCN1C(=O)[C@H](CC(C)C)NC(=O)[C@H](CC(=O)O)NC(=O)[C@@H](NC(=O)[C@H](CO)NC(=O)[C@@H](NC(=O)[C@@H]1CCCN1C(=O)[C@@H]1CCCN1C(=O)CNC(=O)[C@@H]1CCC(=O)N1)[C@@H](C)CC)[C@@H](C)CC)[C@@H](C)CC)[C@@H](C)CC)[C@@H](C)O)[C@@H](C)O)C(=O)N[C@@H](CC(C)C)C(=O)N[C@@H](C)C(=O)N[C@@H](CCCNC(=N)N)C(=O)N[C@H](C(N)=O)C(C)C` [compound 353], for which the EC50 on CRF2R came out at 4.75 nM; on CRF1R it was 230 nM.

Take `CC[C@H](C)[C@H](NC(=O)[C@@H](NC(=O)[C@H](C)NC(=O)[C@H](CC(C)C)NC(=O)[C@H](CC(C)C)NC(=O)[C@H](CC(C)C)NC(=O)[C@H](C)NC(=O)[C@H](CC(N)=O)NC(=O)[C@H](CC(N)=O)NC(=O)[C@H](C)NC(=O)[C@H](C)NC(=O)[C@H](CCC(N)=O)NC(=O)[C@H](CCC(N)=O)NC(=O)[C@H](CCCCN)NC(=O)[C@H](CCC(=O)O)NC(=O)[C@H](CCCCN)NC(=O)[C@H](CCC(=O)O)NC(=O)[C@H](CCC(N)=O)NC(=O)[C@H](CCCCN)NC(=O)[C@H](CCC(=O)O)NC(=O)[C@@H](NC(=O)[C@H](CCC(=O)O)NC(=O)[C@@H](NC(=O)[C@@H](NC(=O)[C@H](CCC(=O)O)NC(=O)[C@H](CCCNC(=N)N)NC(=O)[C@H](CC(C)C)NC(=O)[C@H](CC(C)C)NC(=O)[C@H](CCC(N)=O)NC(=O)[C@H](Cc1ccccc1)NC(=O)[C@@H]1CCCN1C(=O)[C@H](CC(C)C)NC(=O)[C@H](CC(=O)O)NC(=O)[C@@H](NC(=O)[C@H](CO)NC(=O)[C@@H](NC(=O)[C@@H]1CCCN1C(=O)[C@@H]1CCCN1C(=O)CNC(=O)[C@@H]1CCC(=O)N1)[C@@H](C)CC)[C@@H](C)CC)C(C)C)[C@@H](C)CC)[C@@H](C)CC)[C@@H](C)O)C(N)=O` [compound 359]: the EC50 came to 23.1 nM on CRF2R and 230 nM on CRF1R.

As to `CC[C@H](C)[C@H](NC(=O)[C@@H](NC(=O)[C@H](C)NC(=O)[C@H](CC(C)C)NC(=O)[C@H](CC(C)C)NC(=O)[C@H](CC(C)C)NC(=O)[C@H](C)NC(=O)[C@H](CC(N)=O)NC(=O)[C@H](CC(N)=O)NC(=O)[C@H](C)NC(=O)[C@H](C)NC(=O)[C@H](CCC(N)=O)NC(=O)[C@H](CCC(N)=O)NC(=O)[C@H](CCCCN)NC(=O)[C@H](CCC(=O)O)NC(=O)[C@H](CCCCN)NC(=O)[C@H](CCC(=O)O)NC(=O)[C@H](CCC(N)=O)NC(=O)[C@H](CCCCN)NC(=O)[C@H](CCC(=O)O)NC(=O)[C@@H](NC(=O)[C@H](CCC(=O)O)NC(=O)[C@@H](NC(=O)[C@H](CC(C)C)NC(=O)[C@H](CC(C)C)NC(=O)[C@H](CCCNC(=N)N)NC(=O)[C@H](CC(C)C)NC(=O)[C@H](CC(C)C)NC(=O)[C@H](CCC(N)=O)NC(=O)[C@H](Cc1ccccc1)NC(=O)[C@@H]1CCCN1C(=O)[C@H](CC(C)C)NC(=O)[C@H](CC(=O)O)NC(=O)[C@@H](NC(=O)[C@H](CO)NC(=O)[C@@H](NC(=O)[C@@H]1CCCN1C(=O)[C@@H]1CCCN1C(=O)CNC(=O)[C@@H]1CCC(=O)N1)[C@@H](C)CC)[C@@H](C)CC)[C@@H](C)CC)[C@@H](C)CC)[C@@H](C)O)C(N)=O` [compound 360], the EC50 at CRF2R is 6.12 nM; at CRF1R it was 157 nM.

As to `CC[C@H](C)[C@H](NC(=O)[C@@H](NC(=O)[C@H](C)NC(=O)[C@H](CC(C)C)NC(=O)[C@H](CC(C)C)NC(=O)[C@H](CC(C)C)NC(=O)[C@H](C)NC(=O)[C@H](CC(N)=O)NC(=O)[C@H](CC(N)=O)NC(=O)[C@H](C)NC(=O)[C@H](C)NC(=O)[C@H](CCC(N)=O)NC(=O)[C@H](CCC(N)=O)NC(=O)[C@H](CCCCN)NC(=O)[C@H](CCC(=O)O)NC(=O)[C@H](CCCCN)NC(=O)[C@H](CCC(=O)O)NC(=O)[C@H](CCC(N)=O)NC(=O)[C@H](CCCCN)NC(=O)[C@H](CCC(=O)O)NC(=O)[C@@H](NC(=O)[C@H](CCC(=O)O)NC(=O)[C@@H](NC(=O)[C@H](C)NC(=O)[C@H](CCCCN)NC(=O)[C@H](CCCNC(=N)N)NC(=O)[C@H](CC(C)C)NC(=O)[C@H](CC(C)C)NC(=O)[C@H](CCC(N)=O)NC(=O)[C@H](Cc1ccccc1)NC(=O)[C@@H]1CCCN1C(=O)[C@H](CC(C)C)NC(=O)[C@H](CC(=O)O)NC(=O)[C@@H](NC(=O)[C@H](CO)NC(=O)[C@@H](NC(=O)[C@@H]1CCCN1C(=O)[C@@H]1CCCN1C(=O)CNC(=O)[C@@H]1CCC(=O)N1)[C@@H](C)CC)[C@@H](C)CC)[C@@H](C)CC)[C@@H](C)CC)[C@@H](C)O)C(N)=O` [compound 364], the EC50 at CRF2R (read-out: CRF2R EC50) was 13.2 nM; on CRF1R (read-out: CRF1R EC50) it was ≥ 1000 nM.

With `CC[C@H](C)[C@H](NC(=O)[C@@H](NC(=O)[C@H](CC(=O)O)NC(=O)[C@H](CC(C)C)NC(=O)[C@H](CC(C)C)NC(=O)[C@H](CC(C)C)NC(=O)[C@H](C)NC(=O)[C@H](CC(N)=O)NC(=O)[C@H](CC(N)=O)NC(=O)[C@H](C)NC(=O)[C@H](C)NC(=O)[C@H](CCC(N)=O)NC(=O)[C@H](CCC(N)=O)NC(=O)[C@H](CCCCN)NC(=O)[C@H](CCC(=O)O)NC(=O)[C@H](CCCCN)NC(=O)[C@H](CCC(=O)O)NC(=O)[C@H](CCC(N)=O)NC(=O)[C@H](CCCCN)NC(=O)[C@H](CCC(=O)O)NC(=O)[C@@H](NC(=O)[C@H](CCC(=O)O)NC(=O)[C@@H](NC(=O)[C@H](C)NC(=O)[C@H](CCCCN)NC(=O)[C@H](CCCNC(=N)N)NC(=O)[C@H](CC(C)C)NC(=O)[C@H](CC(C)C)NC(=O)[C@H](CCC(N)=O)NC(=O)[C@H](Cc1ccccc1)NC(=O)[C@@H]1CCCN1C(=O)[C@H](CC(C)C)NC(=O)[C@H](CC(=O)O)NC(=O)[C@@H](NC(=O)[C@H](CO)NC(=O)[C@@H](NC(=O)[C@@H]1CCCN1C(=O)[C@@H]1CCCN1C(=O)CNC(=O)[C@@H]1CCC(=O)N1)[C@@H](C)CC)[C@@H](C)CC)[C@@H](C)CC)[C@@H](C)CC)[C@@H](C)O)C(N)=O` [compound 365], the EC50 on CRF2R is 23.5 nM; on CRF1R, ≥ 1000 nM.

As to `CC[C@H](C)[C@H](NC(=O)[C@@H](NC(=O)[C@H](CC(=O)O)NC(=O)[C@H](CC(C)C)NC(=O)[C@H](CC(C)C)NC(=O)[C@H](CCCNC(=N)N)NC(=O)[C@H](C)NC(=O)[C@H](CC(N)=O)NC(=O)[C@H](CC(N)=O)NC(=O)[C@H](C)NC(=O)[C@H](C)NC(=O)[C@H](CCC(N)=O)NC(=O)[C@H](CCC(N)=O)NC(=O)[C@H](CCCCN)NC(=O)[C@H](CCC(=O)O)NC(=O)[C@H](CCCCN)NC(=O)[C@H](CCC(=O)O)NC(=O)[C@H](CCC(N)=O)NC(=O)[C@H](CCCCN)NC(=O)[C@H](CCC(=O)O)NC(=O)[C@@H](NC(=O)[C@H](CCC(=O)O)NC(=O)[C@@H](NC(=O)[C@@H](NC(=O)[C@H](CCCCN)NC(=O)[C@H](CCCNC(=N)N)NC(=O)[C@H](CC(C)C)NC(=O)[C@H](CC(C)C)NC(=O)[C@H](CCC(N)=O)NC(=O)[C@H](Cc1ccc(O)cc1)NC(=O)[C@@H]1CCCN1C(=O)[C@@H](NC(=O)[C@H](CC(=O)O)NC(=O)[C@@H](NC(=O)[C@H](CO)NC(=O)[C@@H](NC(=O)[C@@H]1CCCN1C(=O)[C@@H]1CCCN1C(=O)CNC(=O)[C@@H]1CCC(=O)N1)[C@@H](C)CC)[C@@H](C)CC)C(C)C)C(C)C)[C@@H](C)CC)[C@@H](C)CC)[C@@H](C)O)C(N)=O` [compound 374], the results for the EC50 on CRF2R and on CRF1R were 15.8 nM and ≥ 1000 nM, respectively.

Broadly, the EC50 is the concentration at which the effect is half-maximal.
